Assay results as given in patent US10745393B2, “Small molecular probes, processes and use thereof” (JAWAHARLAL NEHRU CENTRE FOR ADVANCED SCIENTIFIC RESEARCH, priority 2014, dated 2020).

The chains behind the UniProt entries cited, without tags or fusion partners. Residues count along the entry.
UniProt P02769, 25-607: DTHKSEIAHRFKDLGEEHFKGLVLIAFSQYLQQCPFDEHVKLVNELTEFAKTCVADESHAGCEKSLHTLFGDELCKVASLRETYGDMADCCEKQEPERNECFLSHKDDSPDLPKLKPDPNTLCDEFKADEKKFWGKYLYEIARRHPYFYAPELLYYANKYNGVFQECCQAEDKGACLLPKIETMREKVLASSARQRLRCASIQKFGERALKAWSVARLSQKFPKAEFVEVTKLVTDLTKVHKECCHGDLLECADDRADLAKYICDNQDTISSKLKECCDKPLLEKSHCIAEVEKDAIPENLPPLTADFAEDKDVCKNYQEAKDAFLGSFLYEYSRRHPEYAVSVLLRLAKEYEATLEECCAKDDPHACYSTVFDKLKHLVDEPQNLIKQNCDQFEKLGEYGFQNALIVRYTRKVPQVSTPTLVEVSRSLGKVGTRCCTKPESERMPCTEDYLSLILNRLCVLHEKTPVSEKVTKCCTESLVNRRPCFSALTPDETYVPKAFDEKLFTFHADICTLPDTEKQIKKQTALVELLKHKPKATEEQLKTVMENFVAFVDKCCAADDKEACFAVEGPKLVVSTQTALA
UniProt P05067, 672-713 limits assumed: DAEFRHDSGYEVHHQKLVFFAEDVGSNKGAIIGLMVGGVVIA

Experiments:
[1] = biological target: bovine serum albumin (BSA) (Bos taurus, UniProt P02769); assay: Selectivity: fluorescence with BSA; assay type: binding; conditions: BSA 20 μM
[2] = test system: DNA; assay: Comparison of DNA dyes: sequence selectivity and fluorescence of free/DNA bound dye; assay type: binding; conditions: Table 3, probe of the disclosure
[3] = biological target: fetal bovine serum albumin (FBA) (Bos taurus, UniProt P02769); conditions: TC 10 μM, Tris-HCl buffer, excitation 521 nm
[4] = test system: (AT)10; assay: Absorption / fluorescence response of probes with dsDNA (AT)10; assay type: binding; conditions: probe 10 μM
[5] = biological target: Aβ42 aggregates (Homo sapiens, UniProt P05067); assay: Absorption / fluorescence response with Aβ42 fibrillar aggregates; assay type: binding

`CCN(CC)c1ccc2cc(/C=C/c3sc4ccccc4[n+]3C)c(=O)oc2c1` [TC, (E)-3-(2-(N-methyl-benzo[d]thiazol-2-yl)vinyl)-7-(diethylamino)-2H-chromen-2-one] was tested, and the “fluorescence enhancement with BSA” value [1] was “does not lead to significant fluorescence enhancements”, the Selectivity [2] was “AT-rich” and the “fluorescence in presence of FBA” value [3] was “does not show any detectable basal fluorescence”. The “change in absorption maxima (bathochromic shift, Δλ) after addition of dsDNA (AT)10” value [4] was 14 nm, the “hypsochromic shift (Δλ) in the emission maxima with (AT)10” value [4] was 26 nm and the “Shift (red shift going into fibril-like environment)” value ([5]; Experiment, fibril vs water) was 58 nm. The “bathochromic shift of absorption maxima (Δλmax) with Aβ42 aggregates” value ([5]; TC 2 μM, Aβ42 aggregates 10 μM) was “≈ 59 nm”.
